Columns and labels:
[1] = test system: cholesterol biosynthesis in replicon cells; experiment: cells; conditions: 72 h, read-out: Cholesterol IC50
[2] = test system: cholesterol biosynthesis in replicon cells; conditions: added individually, FIG. 6b

| SMILES | IC50 [1] | Effect on cholesterol levels (amount of cholesterol synthesised) [2] |
| --- | --- | --- |
| CCC(C)(C)C(=O)O[C@H]1C[C@@H](C)C=C2C=C[C@H](C)[C@H](CC[C@@H]3C[C@@H](O)CC(=O)O3)[C@H]21 [Simvastatin] | 1000 nM | – |
| CC[C@H](C)C(=O)O[C@H]1C[C@H](O)C=C2C=C[C@H](C)[C@H](CC[C@@H](O)C[C@@H](O)CC(=O)O)[C@H]21 [Pravastatin] | 17500 nM | – |
| COCc1c(C(C)C)nc(C(C)C)c(/C=C/[C@@H](O)C[C@@H](O)CC(=O)O)c1-c1ccc(F)cc1 [Cerivastatin] | 100 nM | – |
| CC[C@H](C)C(=O)O[C@H]1C[C@@H](C)C=C2C=C[C@H](C)[C@H](CC[C@@H]3C[C@@H](O)CC(=O)O3)[C@H]21 [Lovastatin] | 3300 nM | reduce cholesterol levels |
| CC(C)c1c(C(=O)Nc2ccccc2)c(-c2ccccc2)c(-c2ccc(F)cc2)n1CC[C@@H](O)C[C@@H](O)CC(=O)O (relative stereo) [Atorvastatin, [R-(R*,R*)]-2-(4-fluorophenyl)-b,d-dihydroxy-5-(1-methylethyl)-3-phenyl-4[(phenylamino)carbonyl]-IH-pyrrole-1-heptanoic acid] | 600 nM | – |

— patent US20050085528A1 (priority 2003, published 2005)
